The record followed here is PubChem BioAssay AID1381 (University of Pittsburgh Molecular Library Screening Center, 2008).

The entries are a selection whose mix differs from that of the whole data set. The source made the active and inactive calls.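 How the source made its calls: active means plate z-score of nuclear minus cytoplasmic receptor signal below a set negative limit, without overly bright fluorescence or cell loss (cut at about -3.5 in these data, passing the limit was not always enough); inactive means the rest, inconclusive results apart.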

This assay can be described thus: inhibitors of GR-EGFP nuclear translocation, primary screen, dynein cargo transport inhibitor project, imaging, high-content, 3617.4 mouse cells (AID 1381). The following applies: active compounds read low, stimulated with dexamethasone, 1 µM; at 20 µM unless noted.
For `CP(=O)(Nc1cccc(Br)c1)Oc1ccccc1` (configuration not stated), the z-score was inactive: -0.253.
Next, `Cc1cc(C)cc(OP(C)(=O)Nc2ccccn2)c1` (configuration not stated): inactive: -0.0952 [at 50 µM]; `Cc1ccc(NCCc2c([N+](=O)[O-])cc([N+](=O)[O-])cc2[N+](=O)[O-])cc1`: inactive: -0.583.
Take `Nc1cccc2c([As](=O)(O)O)cccc12`: the z-score was inactive: -0.27.
Next, `CCCOP(=S)(Nc1nc(N)cc(=O)[nH]1)OCCC`: inactive: 0.203; `Cc1ccc(C)c(NP(C)(=O)Oc2ccccc2)c1` (configuration not stated): inactive: -0.817 [at 50 µM].
Take `CCOP(=O)(Nc1cccc2ccccc12)OCC`: the z-score was inactive: 0.632.
In the case of `O=C(OC1CN2CCC1CC2)c1ccc(Cl)cc1` (configuration not stated), the z-score is inactive: 0.154.
Next, `COc1cc(C(=O)NCC2(N3CCOCC3)CCCCC2)cc(Cl)c1OC(C)C`: inactive: 0.173; `O=[As](O)(O)c1cccnc1`: inactive: 0.621; `COc1ccccc1OP(C)(=O)Nc1cccc(Br)c1` (configuration not stated): inactive: -0.257.
As to `O=[As](O)(c1cccc(O)c1)c1cccc(O)c1`, the z-score was inactive: -0.28.
In the case of `Cc1cccc(OCC(=O)OC2CN3CCC2CC3)c1` (configuration not stated), the z-score was inactive: 0.109.
As for `Cc1cc(C)cc(OP(C)(=O)Nc2ccc(C)cc2C)c1` (configuration not stated), the figure is inactive: -1.42.
Next, `CCOC(=O)c1ccc(NP(C)(=O)Oc2cc(C)cc(C)c2)cc1` (configuration not stated): inactive: -0.521; `NC(=O)Nc1ccc([As](=O)(O)O)cc1`: inactive: -0.664.
On to `CN(C(=O)Cc1ccccc1)[C@@H]1CC[C@]2(CCCO2)C[C@H]1N1CCCC1`, for which the z-score was inactive: -0.0902.
Next, `CCOP1(=S)c2c(C)nn(CCC#N)c2N=C(c2ccc(F)cc2)N1C` (configuration not stated): inactive: 0.0452; `O=[N+]([O-])c1ccc2c(c1)nnn2O`: inactive: 0.00203 [at 50 µM]; `CC1=NCCc2c1[nH]c1ccccc21.O=[N+]([O-])c1cc([N+](=O)[O-])c(O)c([N+](=O)[O-])c1`: inactive: 0.174.
As for `O=C(O)c1cccc(Nc2c([N+](=O)[O-])cc([N+](=O)[O-])cc2[N+](=O)[O-])c1`, the z-score was inactive: -0.00461.
As for `CCOP1(=S)c2c(C)nn(CCC#N)c2N=C(c2ccccc2F)N1C` (configuration not stated), the z-score was inactive: 0.622 [at 50 µM].
As for `O=P(Nc1nccs1)(c1ccccc1)c1nc2ccccc2s1` (configuration not stated), the figure is inactive: -0.921; as for `O=P(Nc1nccs1)(Oc1ccccc1)Oc1ccccc1`, inactive: 0.105; as for `CS(=O)(=O)c1cc([N+](=O)[O-])c2no[n+]([O-])c2c1`, inactive: -0.346.
Turning to `O=C(O)COc1ccc([As](=O)(O)O)cc1[N+](=O)[O-]`, the z-score was inactive: -0.403.
As for `Nc1ccccc1[As](=O)(O)c1ccccc1`, the figure is inactive: 0.25.
